Measured values as given in patent EP1144368B1, “ACETYLENIC ALPHA-AMINO ACID-BASED SULFONAMIDE HYDROXAMIC ACID TACE INHIBITORS” (priority 1999, dated 2000).
Where two headings read alike, the source gives them in different places.

The chains behind the UniProt entries cited, without tags or fusion partners. Residues count along the entry.
UniProt P78536, 215-824 limits assumed: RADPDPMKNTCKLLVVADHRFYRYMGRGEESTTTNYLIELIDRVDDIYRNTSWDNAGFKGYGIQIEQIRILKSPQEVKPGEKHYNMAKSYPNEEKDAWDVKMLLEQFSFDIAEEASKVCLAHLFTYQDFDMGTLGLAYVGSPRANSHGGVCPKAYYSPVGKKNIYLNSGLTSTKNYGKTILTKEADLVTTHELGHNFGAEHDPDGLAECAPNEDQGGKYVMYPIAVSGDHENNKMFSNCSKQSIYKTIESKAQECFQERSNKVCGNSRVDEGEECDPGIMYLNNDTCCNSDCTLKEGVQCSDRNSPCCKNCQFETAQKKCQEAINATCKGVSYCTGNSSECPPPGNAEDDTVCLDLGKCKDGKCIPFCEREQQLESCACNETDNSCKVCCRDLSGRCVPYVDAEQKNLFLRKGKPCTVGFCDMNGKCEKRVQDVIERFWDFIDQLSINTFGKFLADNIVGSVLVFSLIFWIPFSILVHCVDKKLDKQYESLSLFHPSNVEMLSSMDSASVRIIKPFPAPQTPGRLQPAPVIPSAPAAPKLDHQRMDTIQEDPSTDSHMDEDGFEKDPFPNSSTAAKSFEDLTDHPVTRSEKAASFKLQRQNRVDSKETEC

Target: TACE (Homo sapiens, UniProt P78536)
Experiment: TACE inhibition (fluorescent peptidyl substrate)
Assay type: biochemical
Conditions: for IC50: read-out: IC 50 nM, Table 15: In Vitro Inhibition of TACE

| SMILES | % Inhibition at 1 uM (In Vitro Inhibition of TACE, 1 uM) [%] | IC50 [nM] | IC50 (tested form: neutral parent, no salt stated) [nM] |
| --- | --- | --- | --- |
| CC#CCOc1ccc(S(=O)(=O)N[C@@H](CCCCNCc2ccccc2Cl)C(=O)NO)cc1 | 95 | 328 | – |
| CC#CCOc1ccc(S(=O)(=O)N[C@H](CCCNC(=O)Cc2ccc(Cl)c(Cl)c2)C(=O)NO)cc1 | – | – | 6.11 |
